Like-named read-outs stand apart in the source and are kept apart here.

This is an account of results in US8624079B2, “Knockin mouse with a disruption in a PXR gene expressing human PXR” (ITI Scotland Limited, priority 2007, dated 2014).

This series relates to cytochrome P450 enzymes. The settings on record: for induction of 6-beta-hydroxylation of testosterone: 10 mg/kg.

As to `CO[C@H]1/C=C/O[C@@]2(C)Oc3c(C)c(O)c4c(O)c(c(/C=N/N5CCN(C)CC5)c(O)c4c3C2=O)NC(=O)/C(C)=C\C=C\[C@H](C)[C@H](O)[C@@H](C)[C@@H](O)[C@@H](C)[C@H](OC(C)=O)[C@@H]1C` [rifampicin], the “induction of 6-beta-hydroxylation of testosterone” value runs as follows: (huPXR mice, 4 x ip daily) “significant induction”; (mouse, in vivo, ip) “no induction”. Under “wild type mice, rifampicin 3 and 10 mg/kg, 4 x ip daily”, the “induction of 16-beta-hydroxylation of testosterone” value is “not in the wild type”.
